Values of other authors as cited in patent US20130144250A1, “IMPLANTABLE DRUG DELIVERY COMPOSITIONS AND METHODS OF TREATMENT THEREOF” (Endo Pharmaceuticals Solutions Inc., priority 2011, published 2013).

Details: oral dosage; cited from earlier work

## Cc1nc2n(c(=O)c1CCN1CCC(c3noc4cc(F)ccc34)CC1)CCCC2 [Risperidone, 4-[2-[4-(6-fluorobenzo[d]isoxazol-3-yl)-1-piperidyl]ethyl]-3-methyl-2,6-diazabicyclo[4.4.0]deca-1,3-dien-5-one]
  Bioavailability: ~70%
